What was measured:
[1] = target: Apoptosis regulator Bcl-2 (Homo sapiens, UniProt P10415); experiment: Inhibition in GST-tagged Bcl2 using [FAM]-IWIAQELRRIGDEFNAYY-NH2 as substrate after 60 mins by fluorescence polarization assay
Bcl-2-like protein 1 = Bcl-2-like protein 1 (Homo sapiens, UniProt Q07817); experiment: Inhibition of Bcl-XL using fluoresceinated 18-mer Bim as substrate after 60 mins by FRET analysis

Chains of the proteins cited; added tags and fusions are not shown.
UniProt P10415, whole entry: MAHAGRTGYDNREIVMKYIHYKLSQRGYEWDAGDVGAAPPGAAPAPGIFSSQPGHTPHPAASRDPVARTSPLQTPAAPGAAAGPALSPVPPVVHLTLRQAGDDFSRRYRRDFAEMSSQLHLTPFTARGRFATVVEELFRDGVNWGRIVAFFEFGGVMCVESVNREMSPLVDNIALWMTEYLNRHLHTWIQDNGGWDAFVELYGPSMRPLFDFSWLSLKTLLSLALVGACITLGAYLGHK
UniProt Q07817, whole entry: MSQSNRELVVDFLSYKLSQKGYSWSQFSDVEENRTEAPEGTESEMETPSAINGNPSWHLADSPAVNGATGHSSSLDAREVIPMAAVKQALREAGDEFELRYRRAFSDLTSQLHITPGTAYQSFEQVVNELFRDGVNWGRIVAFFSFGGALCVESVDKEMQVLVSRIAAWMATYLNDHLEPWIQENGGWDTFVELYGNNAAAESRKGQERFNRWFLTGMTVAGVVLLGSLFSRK

| IC50 [1] | IC50 (Bcl-2-like protein 1) | Structure (SMILES) |
| --- | --- | --- |
| 35 nM | 37 nM | CCCCN(CCCC)C(=O)c1nn(-c2ccc(C(=O)NS(=O)(=O)c3ccc4cccc(I)c4c3)cc2C(=O)N2CCc3ccccc3C2)c(C)c1Cl |
|  | 12 nM | CCCCN(CCCC)C(=O)c1nn(-c2ccc(C(=O)NS(=O)(=O)c3ccc4ccccc4c3)cc2C(=O)N2Cc3ccccc3C[C@H]2CO)c(C)c1Cl |
